Source: US20180325914A1, “INCREASING STORAGE OF VITAMIN A, VITAMIN D AND/OR LIPIDS” (Salk Institute for Biological Studies, priority 2014, published 2018)

Test system: primary HSCs

SMILES: Cc1sc2c(c1C)C(c1ccc(Cl)cc1)=N[C@@H](CC(=O)OC(C)(C)C)c1nnc(C)n1-2 [JQ1, (S)-tert-butyl 2-(4-(4-chlorophenyl)-2,3,9-trimethyl-6H-thieno[3,2-f][1,2,4]triazolo[4,3-a][1,4]diazepin-6-yl)acetate]
- Rab34 log2(fold_change): −0.2385
- Rab3d log2(fold_change): −0.3572
- Racgap1 log2(fold_change): 0.4694
- Rad51 log2(fold_change): 0.8001
- Rap1gap2 log2(fold_change): −3.0594
- Rarb log2(fold_change): 0.5451
- Rasl11a log2(fold_change): −0.707
- Rasl11b log2(fold_change): −0.6909
- Rasl12 log2(fold_change): −3.9176
- Rbp1 log2(fold_change): 0.875
- Reck log2(fold_change): 0.9921
- Reep5 log2(fold_change): −0.6259
- Rftn1 log2(fold_change): −0.8376
- Rftn2 log2(fold_change): −1.9248
- Rgs4 log2(fold_change): −3.3664
- Rhobtb3 log2(fold_change): −0.3871
- Rhoq log2(fold_change): −0.8314
- Rian log2(fold_change): −0.8929
- Rnft1 log2(fold_change): −0.32
- Ror1 log2(fold_change): −0.5141
- Rprd1a log2(fold_change): −0.3768
- Rrm2 log2(fold_change): 0.9922
- Rtn1 log2(fold_change): 2.23
- Runx2 log2(fold_change): −0.5139
- Ryk log2(fold_change): −0.3459
- S100a1 log2(fold_change): −0.246
- S100a4 log2(fold_change): 1.143
- S100a6 log2(fold_change): 0.613
- Saa3 log2(fold_change): −4.0632
- Samd4 log2(fold_change): −0.6143
- Sardh log2(fold_change): −1.7257
- Sat2 log2(fold_change): −0.4861
- Sbsn log2(fold_change): 1.031
- Scara3 log2(fold_change): 1.074
- Scd1 log2(fold_change): −0.6976
- Sce1 log2(fold_change): −2.2691
- Scrn1 log2(fold_change): 0.5985
- Sdpr log2(fold_change): 1.788
- Sec23a log2(fold_change): −0.8833
- Selm log2(fold_change): −0.4019
- Sepw1 log2(fold_change): −0.5369
- Sepx1 log2(fold_change): −0.417
- Serinc2 log2(fold_change): −2.5514
- Serpinb9b log2(fold_change): −3.7131
- Serpine2 log2(fold_change): −2.1235
- Serpinf1 log2(fold_change): −2.5721
- Serping1 log2(fold_change): −0.8115
- Serpinh1 log2(fold_change): −0.337
- Serpini1 log2(fold_change): 1.3473
- Sertad4 log2(fold_change): −3.121
- Sesn3 log2(fold_change): 1.596
- Setbp1 log2(fold_change): −0.8714
- Setd7 log2(fold_change): −0.2421
- Sfrp1 log2(fold_change): −0.5017
- Sgce log2(fold_change): −2.0094
- Sh3gl3 log2(fold_change): −2.4548
- Sh3kbp1 log2(fold_change): −1.8439
- Shcbp1 log2(fold_change): 0.8877
- Shisa2 log2(fold_change): 1.027
- Shisa3 log2(fold_change): −1.5942
- Shroom3 log2(fold_change): −0.8485
- Sipa1l1 log2(fold_change): 0.6042
- Skp2 log2(fold_change): −0.4125
- Slc2a8 log2(fold_change): 0.8135
- Slc2a10 log2(fold_change): −2.1952
- Slc7a6 log2(fold_change): −0.5434
- Slc9a3r1 log2(fold_change): 1.386
- Slc16a3 log2(fold_change): −3.9927
- Slc24a3 log2(fold_change): −0.5644
- Slc35a2 log2(fold_change): −0.3641
- Slc44a2 log2(fold_change): −0.2965
- Slit2 log2(fold_change): 0.6866
- Slit3 log2(fold_change): −0.4421
- Smc2 log2(fold_change): 0.6717
- Smc4 log2(fold_change): 0.62
- Snai1 log2(fold_change): −0.4246
- Snai2 log2(fold_change): 1.38
- Snap47 log2(fold_change): 0.5756
- Snta1 log2(fold_change): −0.3253
- Snurf log2(fold_change): −0.7461
- Snx30 log2(fold_change): −0.4459
- Sorcs2 log2(fold_change): −5.2626
- Spag5 log2(fold_change): 0.9117
- Sparcl1 log2(fold_change): −2.4092
- Spc24 log2(fold_change): 0.4494
- Spc25 log2(fold_change): 1.212
- Speg log2(fold_change): −1.8147
- Spon2 log2(fold_change): −2.8564
- Spp1 log2(fold_change): −2.0575
- Spry1 log2(fold_change): 0.752
- Srgap3 log2(fold_change): −1.7008
- Srpx2 log2(fold_change): −3.7184
- Srpx log2(fold_change): −2.4569
- St5 log2(fold_change): 0.509
- Steap2 log2(fold_change): −0.6515
- Stk39 log2(fold_change): −0.4556
- Stra6 log2(fold_change): −6.3397
- Sulf1 log2(fold_change): −0.4274
- Svep1 log2(fold_change): 2.307
- Syt13 log2(fold_change): −2.6844
- Tacc3 log2(fold_change): 0.5061
- Tbx20 log2(fold_change): 1.389
- Tbxa2r log2(fold_change): −1.9518
- Tcea3 log2(fold_change): −1.5921
- Tcf19 log2(fold_change): 1.669
- Tead3 log2(fold_change): −0.4209
- Tfdp2 log2(fold_change): 0.6479
- Tfpi2 log2(fold_change): −3.0027
- Thbs2 log2(fold_change): −0.8666
- Thbs3 log2(fold_change): −2.4507
- Thy1 log2(fold_change): −3.7357
- Timp1 log2(fold_change): −1.7931
- Timp2 log2(fold_change): 0.9045
- Tinagl1 log2(fold_change): 0.5558
- Tlcd2 log2(fold_change): −0.3733
- Tll1 log2(fold_change): −3.6502
- Tm7sf3 log2(fold_change): −0.4638
- Tmeff1 log2(fold_change): −3.7746
- Tmem9 log2(fold_change): −0.7597
- Tmem14a log2(fold_change): −1.5484
- Tmem38a log2(fold_change): −0.52
- Tmem45a log2(fold_change): −1.6657
- Tmem53 log2(fold_change): 0.6188
- Tmem119 log2(fold_change): −0.2868
- Tmem176a log2(fold_change): −0.5508
- Tmem200a log2(fold_change): −4.1061
- Tmsb10 log2(fold_change): 0.7412
- Tnfsf8 log2(fold_change): −5.8552
- Tnfsf13b log2(fold_change): −3.0126
- Tnfsf15 log2(fold_change): −7.3507
- Tnfsf18 log2(fold_change): −4.6786
- Top2a log2(fold_change): 0.8227
- Tpm1 log2(fold_change): −0.4794
- Tpm2 log2(fold_change): −0.769
- Trf log2(fold_change): −0.3919
- Trim46 log2(fold_change): −1.8231
- Trim59 log2(fold_change): 0.4395
- Trnp1 log2(fold_change): −0.3979
- Tro log2(fold_change): 0.5702
- Trp53inp2 log2(fold_change): 0.4739
- Trpc6 log2(fold_change): −7.4279
- Tsku log2(fold_change): −2.3089
- Tspan2 log2(fold_change): −2.1422
- Tspan6 log2(fold_change): −0.2178
- Ttc13 log2(fold_change): −0.2207
- Ttc19 log2(fold_change): −0.5541
- Tubb2b log2(fold_change): −0.4834
- Tubb4 log2(fold_change): −0.3153
- Twist1 log2(fold_change): 0.605
- Txndc5 log2(fold_change): −0.2232
- Ube2c log2(fold_change): −0.274
- Ufsp2 log2(fold_change): −0.6512
- Uhrf1 log2(fold_change): 0.4265
- Unc119 log2(fold_change): −0.3655
- Upk1b log2(fold_change): 1.6531
- Vash2 log2(fold_change): −2.0211
- Vegfa log2(fold_change): −2.1227
- Vgll3 log2(fold_change): 0.5105
- Wbscr17 log2(fold_change): −2.851
- Wdr6 log2(fold_change): 0.9888
- Wdr35 log2(fold_change): 0.43
- Wee1 log2(fold_change): −0.4044
- Wfs1 log2(fold_change): −0.2641
- Whrn log2(fold_change): −0.5073
- Wisp1 log2(fold_change): −4.0915
- Wisp2 log2(fold_change): −5.8129
- Wnt4 log2(fold_change): −1.9421
- Wnt5a log2(fold_change): −2.1293
- Wnt9a log2(fold_change): −0.3907
- Wnt11 log2(fold_change): −2.9523
- Wt1 log2(fold_change): 0.4796
- Ydjc log2(fold_change): −2.3472
- Ypel5 log2(fold_change): −0.6169
- Zbtb7c log2(fold_change): 0.5911
- Zbtb8b log2(fold_change): −2.1437
- Zfp651 log2(fold_change): −0.6302
- Zfp827 log2(fold_change): −3.4748
- Zmat3 log2(fold_change): −0.5817
- Zranb3 log2(fold_change): −0.829
- Zwilch log2(fold_change): 1.193
- Zyx log2(fold_change): −0.4475
